In ChEMBL document CHEMBL1149230, “Long chain amines and long chain ammonium salts as novel inhibitors of dynamin GTPase activity” (Bioorg Med Chem Lett, 2004):

Target: T1, Dynamin-1 (Homo sapiens, UniProt Q05193)
T1 sequence (Q05193 whole entry): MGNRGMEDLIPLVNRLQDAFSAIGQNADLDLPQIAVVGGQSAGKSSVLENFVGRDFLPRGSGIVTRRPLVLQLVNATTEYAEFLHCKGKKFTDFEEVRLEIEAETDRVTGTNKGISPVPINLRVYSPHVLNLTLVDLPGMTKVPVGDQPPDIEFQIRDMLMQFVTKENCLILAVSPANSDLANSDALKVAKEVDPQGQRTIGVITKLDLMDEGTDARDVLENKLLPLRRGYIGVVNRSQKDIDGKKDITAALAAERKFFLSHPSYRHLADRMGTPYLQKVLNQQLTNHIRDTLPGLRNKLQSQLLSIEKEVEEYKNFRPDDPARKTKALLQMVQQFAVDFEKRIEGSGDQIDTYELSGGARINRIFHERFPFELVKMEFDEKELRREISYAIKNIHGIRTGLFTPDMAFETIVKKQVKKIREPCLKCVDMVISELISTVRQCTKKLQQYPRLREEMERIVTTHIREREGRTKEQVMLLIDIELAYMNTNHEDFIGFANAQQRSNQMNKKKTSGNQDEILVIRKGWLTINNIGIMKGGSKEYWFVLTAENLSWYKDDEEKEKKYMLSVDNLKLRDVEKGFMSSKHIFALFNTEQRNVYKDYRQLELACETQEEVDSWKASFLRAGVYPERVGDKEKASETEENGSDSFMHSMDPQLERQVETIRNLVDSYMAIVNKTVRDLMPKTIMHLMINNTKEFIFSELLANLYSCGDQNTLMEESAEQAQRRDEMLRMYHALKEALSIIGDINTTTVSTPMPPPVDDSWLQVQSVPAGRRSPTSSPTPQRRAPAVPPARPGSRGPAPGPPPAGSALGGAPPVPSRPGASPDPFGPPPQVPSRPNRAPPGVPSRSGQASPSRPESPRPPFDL
Experiment: Concentration required against dynamin-1 GTPase activity of sheep brain.
Parameters: species or system Ovis aries

Sequence CETRIMIDE has an IC50 of 5.79 µM.
